pKi: −log10 of the molar value. Where a name gives a salt, the structure may show the parent alone.
Biological target: 5-hydroxytryptamine receptor 2A (Rattus norvegicus, UniProt P14842)

Protein sequences, listed by entry. Tags and fused reporters are not part of them.
UniProt P14842, whole entry: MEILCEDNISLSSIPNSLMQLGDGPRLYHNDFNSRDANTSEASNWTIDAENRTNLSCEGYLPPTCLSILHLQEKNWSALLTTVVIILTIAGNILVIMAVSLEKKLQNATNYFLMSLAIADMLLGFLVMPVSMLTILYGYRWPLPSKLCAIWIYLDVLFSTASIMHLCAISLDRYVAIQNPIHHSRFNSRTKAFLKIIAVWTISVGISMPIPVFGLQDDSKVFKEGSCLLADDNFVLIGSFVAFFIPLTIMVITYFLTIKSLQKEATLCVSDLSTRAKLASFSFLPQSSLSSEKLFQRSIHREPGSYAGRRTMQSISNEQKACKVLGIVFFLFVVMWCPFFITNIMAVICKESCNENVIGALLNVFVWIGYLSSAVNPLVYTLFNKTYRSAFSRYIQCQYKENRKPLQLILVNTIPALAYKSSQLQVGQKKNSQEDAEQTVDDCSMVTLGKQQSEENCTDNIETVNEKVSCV

- pKi: 6.00
SMILES: CN(C)CCCC1(c2ccc(F)cc2)OCc2cc(C#N)ccc21 (stereo unspecified) [CITALOPRAM HYDROBROMIDE]

Source: BindingDB's records for PubMed 2905001 (Mcneil Pharmaceutical, 1988)
